## Measured properties of organic chemicals

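The numbers are reported measurements, compiled and curated for the OPERA QSAR suite. A listed value is a point estimate from one report or more. How each value was measured is not recorded, so precision varies. Where a salt, mixture or single isomer is drawn, the source does not say that exactly this form was tested. Some entries may be limits or estimates that an upstream database listed as plain numbers.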

The melting point is given in degrees Celsius. The boiling point refers to atmospheric pressure (760 mmHg), by the definition of the set. The octanol-water partition coefficient is given as log10; larger values mean a more lipophilic compound. Solubility in water is on a log10 molar scale (set defined at 25 °C). Vapor pressures (log10 mmHg) refer to near room temperature, 15 to 30 °C; higher is more volatile. fu is the fraction unbound in human plasma, from 0 to 1. Intrinsic clearance (human, µL/min per 10^6 hepatocytes): higher is faster turnover, and 0 stands for none detected. Cells with "n/a" have no entry in this list.

melting point (°C),BP (°C),logP (octanol/water),log S (log10 mol/L),log vapor pressure (log10 mmHg),fu,Clint (µL/min/10^6 cells),structure (SMILES),name
n/a,n/a,5.35,-4.98,n/a,n/a,n/a,COC1=CCC2=C(CCC3C2CCC2(C)C(=O)CCC32)C1 (configuration not stated),"3-Methoxyestra-2,5(10)-dien-17-one"
n/a,n/a,3.56,-2.557,n/a,n/a,n/a,CC(CCO)CC(C)(C)C (configuration not stated),"3,5,5-Trimethyl-1-hexanol"
n/a,n/a,3.8,-7.189,-0.618,n/a,n/a,FC(F)(F)C(F)(F)C(F)(F)C(F)(F)C(F)(F)C(F)(F)CCI,"1H,1H,2H,2H-Perfluorooctyl iodide"
n/a,285,n/a,n/a,-6.095,n/a,n/a,O=C1NS(=O)(=O)c2ccccc21,Saccharin
86.85,n/a,3.8,-5.445,-7.782,n/a,n/a,CCOC(=O)C1=NOC(c2ccccc2)(c2ccccc2)C1,"Ethyl 5,5-diphenyl-2-isoxazoline-3-carboxylate"
n/a,n/a,4.9,-4.158,-1.654,n/a,n/a,CC(=O)OCCC(C)CCC=C(C)C (configuration not stated),Citronellyl acetate
n/a,n/a,2.87,-5.187,n/a,n/a,n/a,CCOc1ccccc1NC(=O)c1cc2ccccc2cc1O,3-Hydroxy-2-naphtho-o-phenetidide
n/a,285.8,0.37,n/a,n/a,n/a,n/a,CCOC(=O)CCC1(C)OCC(CO)O1 (configuration not stated),n/a
n/a,n/a,n/a,-5.368,n/a,0.05,n/a,CC(C)(Oc1ccc(CCNC(=O)c2ccc(Cl)cc2)cc1)C(=O)O,Bezafibrate
n/a,n/a,1.9,-6.245,n/a,n/a,n/a,CCCCCCCCCCCC(=O)NCCCC[C@H](N)C(=O)O,"L-Lysine, N6-(1-oxododecyl)-"
n/a,n/a,n/a,-2.839,n/a,0.2548,n/a,COc1nccnc1NS(=O)(=O)c1ccc(N)cc1,Sulfalene
-38,n/a,n/a,n/a,-6.262,n/a,n/a,C=CC(=O)OCCOC(=O)NC1CC(C)(C)CC(C)(CN=C=O)C1 (configuration not stated),n/a
28.1,n/a,n/a,-2.544,-1.321,n/a,n/a,CO/N=C1\COc2ccccc21,(Z)-Benzofuran-3(2H)-one O-methyl oxime
15.5,n/a,1,n/a,-0.862,n/a,n/a,NCC1C2CCC(C2)C1CN (configuration not stated),"(Bicyclo[2.2.1]heptane-2,3-diyl)dimethanamine"
n/a,n/a,3.9,-5.511,n/a,n/a,n/a,CN1CCC[C@@H]1Cc1c[nH]c2ccc(CCS(=O)(=O)c3ccccc3)cc12,Eletriptan
n/a,n/a,-0.29,n/a,-5.722,n/a,n/a,O=C1CSC(=O)N1,Thiazolidinedione
n/a,n/a,1.6,n/a,1.506,n/a,n/a,COC1CCCC1,"Cyclopentane, methoxy-"
n/a,160,n/a,n/a,0.404,n/a,n/a,CCCOC(C)OCCC,"Propane, 1,1'-[ethylidenebis(oxy)]bis-"
n/a,n/a,-0.021,n/a,-0.865,n/a,n/a,CO[Si](OC)(OC)c1ccccc1,Trimethoxyphenylsilane
n/a,n/a,n/a,n/a,n/a,0.01614,42.12,CCC(C)N(C)C(=O)c1cc2ccccc2c(-c2ccccc2Cl)n1 (configuration not stated),n/a
-32,n/a,n/a,n/a,2.595,n/a,n/a,FC(F)(F)C1(F)C(F)(F)C(F)(F)C1(F)C(F)(F)F (configuration not stated),"Perfluoro-1,2-dimethylcyclobutane"
-100.1,n/a,n/a,n/a,-1.648,n/a,n/a,CCO[Si](OCC)(OCC)c1ccccc1,Triethoxy(phenyl)silane
n/a,254,3.3,-2.561,-2.686,n/a,n/a,C=CC(C)C(O)c1ccc(Cl)cc1 (configuration not stated),1-(4-chloro-phenyl)-2-methyl-but-3-en-1-ol
n/a,n/a,n/a,n/a,n/a,0.1488,0.65,COc1c(Cl)ccc(Cl)c1C(=O)O,Dicamba
n/a,n/a,3.9,-3.423,-0.133,n/a,n/a,CCCCC(CC)C(=O)OCC (configuration not stated),"Hexanoic acid, 2-ethyl-, ethyl ester"
n/a,n/a,1.43,n/a,-5.389,n/a,n/a,CCCCCCCCCCCC(=O)N[C@@H](CCCNC(=N)N)C(=O)OCC.Cl,Ethyl-N2-dodecanoyl-L-argininate hydrochloride
237.2,n/a,1.1,n/a,n/a,n/a,n/a,C=C(C)C(=O)Nc1ccc(S(=O)(=O)Nc2nc(C)cc(C)n2)cc1,n/a
147.5,n/a,n/a,n/a,-8.314,n/a,n/a,CC(C)(C)C(=O)OC[C@H]1O[C@H](Br)[C@H](OC(=O)C(C)(C)C)[C@@H](OC(=O)C(C)(C)C)[C@@H]1OC(=O)C(C)(C)C,n/a
50,n/a,1.57,n/a,n/a,n/a,n/a,CC(C)CC1(C)OCC(CO)O1 (configuration not stated),"1,3-Dioxolane-4-methanol, 2-methyl-2-(2-methylpropyl)-"
n/a,n/a,0.2,-4.236,-8.126,n/a,n/a,Cc1cnc(C(=O)NCCc2ccc(S(N)(=O)=O)cc2)cn1,n/a
168,n/a,n/a,-10.14,n/a,n/a,n/a,Clc1cc(Cl)c(Oc2c(Cl)c(Cl)c(Cl)c(Cl)c2Cl)cc1Cl,"2,2',3,4,4',5,5',6-Octachloro-diPh ether"
63,327.5,5.2,-6.249,-4.764,n/a,n/a,CCOc1ccc(-c2ccc(C)cc2)c(F)c1F,n/a
-76,270,n/a,n/a,-1.454,n/a,n/a,CN(C)CCOCCN(C)CCCN,n/a
n/a,n/a,3.3,-4.992,n/a,n/a,n/a,O=C(O)c1ccc(NC(=O)[C@H](Cc2ccc(O)cc2)NC(=O)c2ccccc2)cc1,Bentiromide
n/a,n/a,0.5,n/a,-6.301,n/a,n/a,CC1(C)CC(O)CC(C)(C)N1CCO,"1-(2-Hydroxyethyl)-2,2,6,6-tetramethyl-4-piperidinol"
70,n/a,n/a,-7.094,n/a,n/a,n/a,CCCCCCCCCCCCCCCCCCOC(=O)/C=C/C(=O)OCCCCCCCCCCCCCCCCCC,"2-Butenedioic acid (2E)-, di-C18-22-alkyl esters"

Excerpt, the final 4 entries:

{"smiles": "CN(C)CCOCCN(C)CCCN", "melting point (°C)": "-76", "BP (°C)": "270", "log vapor pressure (log10 mmHg)": "-1.454"}
{"smiles": "O=C(O)c1ccc(NC(=O)[C@H](Cc2ccc(O)cc2)NC(=O)c2ccccc2)cc1", "name": "Bentiromide", "logP (octanol/water)": "3.3", "log S (log10 mol/L)": "-4.992"}
{"smiles": "CC1(C)CC(O)CC(C)(C)N1CCO", "name": "1-(2-Hydroxyethyl)-2,2,6,6-tetramethyl-4-piperidinol", "logP (octanol/water)": "0.5", "log vapor pressure (log10 mmHg)": "-6.301"}
{"smiles": "CCCCCCCCCCCCCCCCCCOC(=O)/C=C/C(=O)OCCCCCCCCCCCCCCCCCC", "name": "2-Butenedioic acid (2E)-, di-C18-22-alkyl esters", "melting point (°C)": "70", "log S (log10 mol/L)": "-7.094"}

Data: OPERA 2.9 data sets, kmansouri/OPERA on GitHub.